Wnt act – activators of Wnt/beta-catenin signaling; Wnt/beta-catenin reporter cell assay, activator, plate reader; activation, % at 9.35 µM; 300,000 compounds, 1.2% hits; in the data active means activation above about 30%, passing the limit was not always enough;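 further: 0% = neutral control wells and 100% = positive control wells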
miR-122 sensor – miR-122 inhibition in Huh7 cells; Huh7 miR-122 Renilla luciferase sensor, 48 h; neutral wells = 0, positive control = 100; activation (reporter increase), % at 12.5 µM; 340,000 compounds, 0.3% hits;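 active means mean replicate activation score at least 90 and every replicate individually at or above 90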;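 further: higher luciferase means less miR-122 activity so hits act as miR-122 inhibitors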
PGC1a acetyl inh – lowers PGC1a acetylation signal in U2OS cells; AlphaScreen anti-acetyl-lysine; with virally co-expressed GCN5 acetyltransferase; inhibition, % at 15.6 µM; 350,000 compounds, 0.17% hits; AID 651687;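 active means every replicate shows inhibition of at least 40%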;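 further: 0% = neutral control wells and 100% = positive control wells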
UUG fidelity – alters start codon recognition fidelity in yeast; S. cerevisiae UUG-firefly luciferase reporter, luminescence/redox ratio; activity score, % at 18.7 µM; actives 0.13% (n = 350,000); AID 602363;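 active = replicate mean at a twofold rise or more, about +100% in these data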;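 also: firefly luciferase made from a UUG start codon reports start codon fidelity; reporter light over untreated wells divided by growth signal over untreated wells; some hits fall short of that in this replicate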
MITF TRPM1 inh – reduces MITF-dependent TRPM1 promoter luciferase signal; SK-MEL-5 TRPM1 promoter luciferase, 24 h; 330,000 compounds, 0.83% hits; inhibition, % at 12.5 µM;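 active means mean inhibition across replicates of 60% or more, whatever share of single replicates reaches that level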
MITF act – MITF TRPM1 promoter activation in melanoma cells | activation, % at 12.5 µM | 300,000 compounds, 0.75% hits | SK-MEL-5 TRPM1-promoter luciferase, 24 h; % of positive control, neutral wells = 0 | AID 588334;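 active means mean activation of at least 80% with every replicate also reaching 80%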;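 further: 0% = neutral control wells and 100% = parthenolide positive control wells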
* hit, by the source's call; / = not tested or not shown; [ ] = another dose, or the depositor's remark. The list is not random: actives were taken first. Their share in the collection is about 2.1%.

1	CCCN(C)C[C@H]1OCCCC[C@@H](C)Oc2ccc(NC(=O)NC(C)C)cc2C(=O)N([C@H](C)CO)C[C@@H]1C
2	Nc1c(C(=O)c2ccc(Cl)cc2)sc2nc3c(cc12)CCC3
3	Nc1c(C(=O)C2CC2)sc2nc3c(cc12)CCC3
4	Nc1c(C(=O)O)sc2nc3c(cc12)CCCC3
5	Nc1c(C(=O)Nc2cccc(C(=O)O)c2)sc2nc3c(cc12)CCCC3
6	COc1ccc(-c2c3c(nc4sc(C(=O)Nc5ccccc5)c(N)c24)CCC3)cc1

screen / no.,1,2,3,4,5,6
Wnt act,/,-3,8,15,-1,36*
miR-122 sensor,-1[16.7 µM],-13,/,-1,2,-2
PGC1a acetyl inh,7,16,15,-5,1,-9
UUG fidelity,/,10,/,-15,-82,-34
MITF TRPM1 inh,/,-135,-113,/,80*,-21
MITF act,/,152*,117*,/,-80,14

7	O=C(C[C@@H]1CC[C@H](NC(=O)C2CCOCC2)[C@H](CO)O1)NCc1ccncc1
8	CO[C@H]1CN(C)C(=O)c2cc(NS(=O)(=O)c3cn(C)cn3)ccc2OC[C@@H](C)N(CC2CC2)C[C@@H]1C
9	O=C(Cc1ccccn1)NCC[C@@H]1CC[C@@H](NC(=O)Nc2ccc(Cl)cc2)[C@@H](CO)O1
10	Cc1ccc(S(=O)(=O)NC2CCN(Cc3cccc(OCCO)c3)CC2)cc1
11	Cc1ccc(Nc2cc(C)nn2-c2nc(C)cc(=O)[nH]2)cc1
12	O=C(NCC(F)(F)F)[C@@H]1[C@@H](CO)[C@@H]2Cn3c(cccc3=O)[C@H]1N2CC1CCCC1

screen / no.,7,8,9,10,11,12
Wnt act,/,/,/,/,/,/
miR-122 sensor,/,/,/,/,-24,/
PGC1a acetyl inh,6,-6,-7,/,19,7
UUG fidelity,/,/,/,2,-71,/
MITF TRPM1 inh,/,/,/,/,98*,/
MITF act,/,/,/,/,-98,/

13	COc1ccc2c3c(n(C)c2c1)[C@@H](CO)N(Cc1ccccn1)CC31CN(C(=O)NC(C)C)C1
14	O=C(NCC[C@H]1CC[C@H](NC(=O)c2ccccc2F)[C@H](CO)O1)c1ccc2c(c1)OCO2
15	Cc1cc(C)c(C)c(S(=O)(=O)Nc2ccc(C(=O)N3CCCC3)cc2)c1C
16	Cc1cccc(NS(=O)(=O)c2cccc(C(=O)N3CCCCCC3)c2)c1
17	Cc1cccc(NS(=O)(=O)c2cccc(C(=O)N3CCCCCCC3)c2)c1
18	CCOC(=O)N1CCN(C(=O)c2cccc(S(=O)(=O)Nc3ccc(OC)cc3)c2)CC1

screen / no.,13,14,15,16,17,18
Wnt act,/,/,-3,-1,-2,2
miR-122 sensor,/,-14[16.7 µM],135*,72,163*,/
PGC1a acetyl inh,3,-3,-1,0,6,/
UUG fidelity,/,-13,-10,-9,2,/
MITF TRPM1 inh,/,/,3,-2,6,7
MITF act,/,/,-7,3,-5,-6

19	CCOC(=O)N1CCN(C(=O)c2cccc(S(=O)(=O)Nc3ccc(F)cc3)c2)CC1
20	C[C@@H]1CCCCO[C@@H](CN(C)C(=O)c2ccccc2)[C@H](C)CN([C@@H](C)CO)C(=O)c2cc(NC(=O)Nc3cccc4ccccc34)ccc2O1
21	COCC(=O)Nc1ccc2c(c1)[C@H]1C[C@@H](CC(=O)NCc3ccccc3)O[C@@H](CO)[C@H]1O2
22	Cc1cc(/C=C2\C(=N)N3N=CSC3=NC2=O)c(C)n1Cc1ccccc1
23	CCCC1=NN2C(=N)/C(=C\c3cc(C)n(Cc4ccccc4)c3C)C(=O)N=C2S1
24	COc1cc(NC(=O)c2cc3nc(C)cc(C)n3n2)c(OC)cc1Cl

screen / no.,19,20,21,22,23,24
Wnt act,39*,/,/,36*,0,/
miR-122 sensor,/,-10[16.7 µM],-1[16.7 µM],/,9,-11
PGC1a acetyl inh,/,6,-4,2,12,15
UUG fidelity,-4,3,-16,-26,-13,1
MITF TRPM1 inh,4,/,/,-25,11,-105
MITF act,-5,/,/,22,/,100*

25	O=C1CCCc2ccccc2N1Cc1ccc(F)cc1
26	CCN1C(=O)CCCc2ccccc21
27	CCc1ccc(C(=O)COC(=O)c2cccc(N3C(=O)c4c(C)nc5ccccc5c4C3=O)c2)cc1
28	O=C(COC(=O)c1cccc(N2C(=O)C3CC=CCC3C2=O)c1)c1ccccc1 (stereo not given)
29	COC(=O)c1[nH]c2ccc(Br)cc2c1NC(=O)CN1CCN(C2CCCCC2)CC1
30	COC(=O)c1[nH]c2ccc(Cl)cc2c1NC(=O)CCN1CCN(C2CCCCC2)CC1

screen / no.,25,26,27,28,29,30
Wnt act,-1,1,48*,6,-8,-3
miR-122 sensor,/,3,-5,-1,-13,-7
PGC1a acetyl inh,4,68*,-2,/,1,-13
UUG fidelity,/,-11,-20,-17,-26,-16
MITF TRPM1 inh,-1,4,8,-17,86*,3
MITF act,11,-3,-9,26,-87,/

31	C(/C=C/c1ccccn1)=C\c1ccccc1
32	Cc1cccc(/C=C/c2ccccc2)n1
33	C(=C\c1cc(/C=C/c2ccccc2)ncn1)/c1ccccc1
34	CN(Cc1ccsc1)C(=O)CCc1nnc(CCCc2ccccc2)o1
35	O=C(CCc1nnc(CCCc2ccccc2)o1)NC(C1CC1)C1CC1
36	Cc1nc(C(C)NC(=O)CCc2nnc(CCCc3ccccc3)o2)c(C)s1 (stereo not given)

screen / no.,31,32,33,34,35,36
Wnt act,42*,46*,37*,33*,29,64*
miR-122 sensor,/,-2,/,-5,/,4
PGC1a acetyl inh,4,14,2,-2,/,6
UUG fidelity,/,-24,-11,-3,/,-12
MITF TRPM1 inh,-62,/,-18,-77,-62,-110
MITF act,65,/,19,76,73,100*

Profiles from above. Screens in order: Wnt act | miR-122 sensor | PGC1a acetyl inh | UUG fidelity | MITF TRPM1 inh | MITF act
Record of O=C(NCC[C@H]1CC[C@H](NC(=O)c2ccccc2F)[C@H](CO)O1)c1ccc2c(c1)OCO2 : / | -14[16.7 µM] | -3 | -13 | / | /
Record of Cc1cccc(NS(=O)(=O)c2cccc(C(=O)N3CCCCCCC3)c2)c1 : -2 | 163* | 6 | 2 | 6 | -5
Record of COc1cc(NC(=O)c2cc3nc(C)cc(C)n3n2)c(OC)cc1Cl : / | -11 | 15 | 1 | -105 | 100*
Record of Cc1nc(C(C)NC(=O)CCc2nnc(CCCc3ccccc3)o2)c(C)s1 (stereo not given) : 64* | 4 | 6 | -12 | -110 | 100*

Next part:
37	COc1cc(C)ccc1OCc1cc(C(=O)NC(C)Cn2cncn2)no1 (stereo not given)
38	COc1cc(Cl)ccc1OCc1cc(C(=O)NCC(C)(C)N2CCOCC2)no1
39	COc1cc(Cl)ccc1OCc1cc(C(=O)NCc2cc(C(C)C)no2)no1
40	C[C@@H]1CN([C@@H](C)CO)S(=O)(=O)c2ccc(-c3ccc(F)cc3)cc2O[C@H]1CN(C)C(=O)C1CC1
41	COc1ccc(CNC(=O)C(=O)NCC(c2ccco2)N2CCOCC2)cc1 (stereo not given)
42	Cc1ccccc1-c1cn(-c2ccccc2)c(=S)[nH]1

screen / no.,37,38,39,40,41,42
Wnt act,19,7,51*,/,40*,0
miR-122 sensor,0,-2,6,8[16.7 µM],-5,-7
PGC1a acetyl inh,/,2,-6,1,2,/
UUG fidelity,-38,0,-3,6,/,-24
MITF TRPM1 inh,-119,-42,-59,/,2,6
MITF act,123*,38,60,/,3,-2

43	Cc1ccc(-c2cn(-c3ccccc3)c(=S)[nH]2)cc1C
44	C[C@@H]1CN([C@@H](C)CO)C(=O)c2cccc(NC(=O)c3nc4ccccc4s3)c2O[C@@H]1CN(C)Cc1ccc(Oc2ccccc2)cc1
45	Cc1cnc(NC(=O)CCNC(=O)c2ccccc2Cl)s1
46	Cc1nnc(NC(=O)CCNC(=O)c2ccccc2Cl)s1
47	Cc1cc(S(=O)(=O)NCCN2CCOCC2)c(C)s1
48	Cc1cc(S(=O)(=O)NCCc2ccccc2)c(C)s1
49	C[C@H]1CN([C@@H](C)CO)S(=O)(=O)c2ccc(-c3ccncc3)cc2O[C@H]1CN(C)Cc1cccnc1
50	CC(=O)Oc1ccccc1C(=O)C=Cc1cccc([N+](=O)[O-])c1

screen / no.,43,44,45,46,47,48,49,50
Wnt act,38*,/,46*,-1,/,-3,/,-5
miR-122 sensor,/,-25[16.7 µM],45,/,34,226*,-7[16.7 µM],25
PGC1a acetyl inh,/,18,6,/,-2,3,10,-4
UUG fidelity,-37,-8,-1,/,-17,-21,-12,-23
MITF TRPM1 inh,-122,/,-2,2,12,0,/,93*
MITF act,123*,/,1,-4,/,4,/,-93
